Test results taken from patent publication US4464359A, “(2'-5')-Oligo (3'-deoxyadenylate) and derivatives thereof” (Research Corporation, priority 1981, dated 1984).

What was measured:
[1] = system: Epstein-Barr Virus (EBV); experiment: EBV-induced stimulation of DNA synthesis in EBV infected human lymphocytes; assay type: cell-based
Method: Heparinized whole venous blood was obtained from the umbilical cords of newborn infants (human umbilical cord lymphocytes) or EBV-seronegative volunteers (peripheral blood lymphocytes) in collaboration with Temple University Hospital, Philadelphia, PA. Mononuclear leukocytes were prepared by the Ficoll-Hypaque method of Boyum (Scand. J. Clin. Invest. 21 (Sup. 97), 77 (1968)) and were cultured in RPMI-1640 supplemented with 20% fetal bovine serum as described (Henderson et al, Virology 76, 152 (1977)). The lymphoblastoid cell lines BJAB and RAJI were gifts of Drs. Werner and Gertrude Henle, Children's Hospital, University of Pennsylvania, Philadelphia, PA, and were cultured as described above. The lymphoblastoid line C85-5C was obtained by transformation of human umbilical cord lymphocytes following infection with EBV and maintained as described aove. Cultured mouse L cells were maintained in minimum essential medium (Eagle) supplemented with Earle's salts, L-glutamine and 6% fetal bovine serum. Interferon-treated mouse L cells were supplied by Dr. Esther H. Chang, National Cancer Institute, NIH. […] EBV stocks were maintained at -70° C. until use. Human umbilical cord lymphocytes and peripheral blood lymphocytes were infected as described (Henderson et al, Supra). […]

[2] = system: Herpes Simplex Virus Type 1 (HSV-1); experiment: Infected centers assay: HSV-1 exposed leukocytes plated onto human foreskin fibroblast monolayers, cytopathic effects (cpe); assay type: cell-based; parameters: key to cpe at given number of HSV-exposed leukocytes per cell: +++: complete destruction of the monolayer; ++: multiple foci of cpe; +: one focus of cpe; 0: no monolayer disturbances
Method: (2'-5')- and (3'-5')A(pA)3 have been reported to be taken up by intact lymphocytes. Therefore, we employed an infected centers assay utilizing lymphocytes to determine the ability of (2'-5') oligonucleotides to inhibit HSV-1. After incubation for 72 hr with or without (2'-5')oligonucleotides, leukocytes exposed to HSV-1 were plated onto human foreskin fibroblast monolayers (Table 2).

[3] = system: C85-5C lymphoblastoid cell line; experiment: Cytotoxicity by colony formation in microtiter plates, C85-5C; assay type: cell-based, human; conditions: treatment for 7 days
Method: Heparinized whole venous blood was obtained from the umbilical cords of newborn infants (human umbilical cord lymphocytes) or EBV-seronegative volunteers (peripheral blood lymphocytes) in collaboration with Temple University Hospital, Philadelphia, PA. Mononuclear leukocytes were prepared by the Ficoll-Hypaque method of Boyum (Scand. J. Clin. Invest. 21 (Sup. 97), 77 (1968)) and were cultured in RPMI-1640 supplemented with 20% fetal bovine serum as described (Henderson et al, Virology 76, 152 (1977)). The lymphoblastoid cell lines BJAB and RAJI were gifts of Drs. Werner and Gertrude Henle, Children's Hospital, University of Pennsylvania, Philadelphia, PA, and were cultured as described above. The lymphoblastoid line C85-5C was obtained by transformation of human umbilical cord lymphocytes following infection with EBV and maintained as described aove. Cultured mouse L cells were maintained in minimum essential medium (Eagle) supplemented with Earle's salts, L-glutamine and 6% fetal bovine serum. […]
IFN-α, core trimer, core tetramer, and core pentamer have been reported to inhibit DNA synthesis in concanavalin A stimulated mouse spleen lymphocytes. Therefore, the effect of these agents on colony formation in closely related lymphoblastoid cell lines was determined (Table 3). […]
*Determined by colony formation in microtiter plates following treatment […]

[4] = system: lymphoblastoid cell lines; experiment: Lymphoblast colony formation / cytotoxicity, cell line not given; assay type: cell-based
Method: Heparinized whole venous blood was obtained from the umbilical cords of newborn infants (human umbilical cord lymphocytes) or EBV-seronegative volunteers (peripheral blood lymphocytes) in collaboration with Temple University Hospital, Philadelphia, PA. […] The lymphoblastoid cell lines BJAB and RAJI were gifts of Drs. Werner and Gertrude Henle, Children's Hospital, University of Pennsylvania, Philadelphia, PA, and were cultured as described above. The lymphoblastoid line C85-5C was obtained by transformation of human umbilical cord lymphocytes following infection with EBV and maintained as described aove. Cultured mouse L cells were maintained in minimum essential medium (Eagle) supplemented with Earle's salts, L-glutamine and 6% fetal bovine serum. Interferon-treated mouse L cells were supplied by Dr. Esther H. Chang, National Cancer Institute, NIH. […] EBV stocks were maintained at -70° C. until use. Human umbilical cord lymphocytes and peripheral blood lymphocytes were infected as described (Henderson et al, Supra).
Therefore, the effect of these agents on colony formation in closely related lymphoblastoid cell lines was determined (Table 3).

## IFN-β: interferon β
[1]
  EBV-induced stimulation of DNA synthesis: inhibited
[2]; 25 U/ml, 2 × 10^5 leukocytes
  cpe at given number of HSV-exposed leukocytes per cell: ++
[2]; 25 U/ml, 2.2 × 10^4 leukocytes
  cpe at given number of HSV-exposed leukocytes per cell: 0
[2]; 25 U/ml, 6.7 × 10^4 leukocytes
  cpe at given number of HSV-exposed leukocytes per cell: +
[2]; 100 U/ml, 2 × 10^5 leukocytes
  cpe at given number of HSV-exposed leukocytes per cell: +++
[2]; 100 U/ml, 2.2 × 10^4 leukocytes
  cpe at given number of HSV-exposed leukocytes per cell: 0
[2]; 100 U/ml, 6.7 × 10^4 leukocytes
  cpe at given number of HSV-exposed leukocytes per cell: 0
[2]; 250 U/ml, 2 × 10^5 leukocytes
  cpe at given number of HSV-exposed leukocytes per cell: +
[2]; 250 U/ml, 2.2 × 10^4 leukocytes
  cpe at given number of HSV-exposed leukocytes per cell: 0
[2]; 250 U/ml, 6.7 × 10^4 leukocytes
  cpe at given number of HSV-exposed leukocytes per cell: 0
[2]; 500 U/ml, 2 × 10^5 leukocytes
  cpe at given number of HSV-exposed leukocytes per cell: 0
[2]; 500 U/ml, 2.2 × 10^4 leukocytes
  cpe at given number of HSV-exposed leukocytes per cell: 0
[2]; 500 U/ml, 6.7 × 10^4 leukocytes
  cpe at given number of HSV-exposed leukocytes per cell: 0
[2]; 72 hr incubation, human foreskin fibroblast monolayers
  development of cpe from HSV-1 infected leukocytes / HSV-1 replication: significantly less cytopathic effects
[3]
  Concentration at which colony formation was inhibited by greater than 50 percent: > 1000 U/ml
[4]
  cytotoxicity / effect on lymphoblast colony formation: no appreciable effect
